Reference: article PMC3041981 (ACS medicinal chemistry letters, 2010)

Tested on: locomotor activity in mice
Test: Locomotor stimulant activity in mice
Format: in vivo

NC(=O)C[S+]([O-])C(c1ccc(Cl)cc1)c1ccc(Cl)cc1 (racemic) [5c]
Locomotor effect in first and second hour after injection (immediately after injection and second hour): no effects
Locomotor effect in third and fourth hours after injection (third and fourth hours, highest dose studied): modest stimulant effect
